# Binding of CDR-mutated scFvs to a peptide of the spike HR2 region

Data: MIT Lincoln Laboratory AlphaSeq set, Li et al. 2023, doi:10.1038/s41467-023-39022-2, as distributed in FLAb.

Antigen: PDVDLGDISGINAS, a 14-residue peptide of the SARS-CoV-2 spike HR2 region.

Parent scFv Ab-14: VH joined to VL by a (GGGGS)3 linker. Changes lie in the heavy chain CDRs alone.
VH: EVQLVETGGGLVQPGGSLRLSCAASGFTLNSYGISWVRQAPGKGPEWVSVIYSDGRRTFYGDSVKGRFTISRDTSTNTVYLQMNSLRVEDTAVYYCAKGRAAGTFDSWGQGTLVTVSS
VL: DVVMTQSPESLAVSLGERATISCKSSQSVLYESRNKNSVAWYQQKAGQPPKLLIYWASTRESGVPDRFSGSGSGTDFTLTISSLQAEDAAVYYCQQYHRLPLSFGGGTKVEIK

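Phage display of a naive human antibody library on the peptide gave the parent. This is the validation round: designs drawn from the data on random variants, tested in the same kind of assay. Their group label is 14H_GP_Gibbs (GP: Gaussian process model; Gibbs: Gibbs sampling; a sequence that several methods proposed may carry one label only). The assay is AlphaSeq: two haploid yeast populations carry antibody and antigen on their surface. Mating (16 h, 30 °C) was followed by selection of diploids and sequencing of their barcodes. The ratio of observed to expected reads was calibrated, replicate by replicate, on BCL2-family standards whose Kd was known from biolayer interferometry. Each pool was mated in six replicate cultures.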

Variants are written as CDR1, CDR2 and CDR3 of the heavy chain (limits as in the source). Parent: GFTLNSYGIS, VIYSDGRRTFYGDSVK, GRAAGTFDS.
Numbers give log10(Kd / nM), so 0 is 1 nM and 3 is 1 µM. Smaller is tighter.
Where no diploid with the target was found in that replicate, the entry reads "n.d.": below detection, most likely a poor binder, though not proof of it.
Of ten entries with the parent sequence, four were seen in most replicates (averages 0.34 to 2.37), three in one and three in none, so single entries are noisy.
The authors averaged sequences with at least three values out of six and counted those with two or fewer as poor binders.
Background: pairings of all heavy chain designs with three empty control strains gave a value in 1% of cases (median 2.08, 5th percentile 0.84). Values in that range, when seen in few replicates, are hard to tell from nonspecific mating. For each scFv, signals with the empty controls are counted beside the result, with their mean in brackets.
Values of this round are not directly comparable with the first-round values of the same sequences.

CDR-H1,CDR-H2,CDR-H3,log10 Kd (nM) by replicate,signal with controls
GFVLNSYGIS,VIYSDGMRTFYVDSVK,GRTAGTFDS,n.d. / 1.89 / n.d. / n.d. / n.d. / n.d.,0 of 18
GFWLNDYGIS,VIYSDGRRTFYKDSVK,GQAAGTFDS,1.50 / n.d. / 2.40 / n.d. / 4.04 / 1.66,1 of 18 (1.37)
GFNLNSYGIS,VIYSDGRRTFYLDSVK,GWTAGTFDS,0.96 / 1.02 / 0.96 / 1.42 / 1.48 / 0.97,0 of 18
GFDLNMYGIS,VIYSDGRRTFYDDSVK,GKAAGTFDS,0.28 / -0.03 / 0.04 / -0.03 / 0.00 / 0.20,0 of 18
GFELNSYGIS,VIYSDGRRTFYGDSVK,GITAGTFDL,0.57 / 0.54 / 0.56 / 0.44 / 0.38 / 0.56,1 of 18 (2.64)
GFTLNSYGIS,VIYSDGQRTFYSDSVK,GQEAGTFDT,0.14 / 0.05 / 0.08 / 0.51 / 0.06 / 0.48,0 of 18
GFVLNDYGIS,VIYSDGRRTFYGDSVK,GRTAGTFDK,n.d. / 1.19 / 1.54 / 1.73 / 1.37 / 0.96,0 of 18
GFQLESYGIS,VIYSDGRRTFYADQVK,GRTAGTFDS,1.04 / n.d. / 1.33 / 0.67 / n.d. / 0.58,0 of 18
GFDLNSYGIS,VIYSDGWRTFYKDSVK,GRTAGTFDS,0.32 / 1.85 / -0.12 / 0.59 / 1.06 / n.d.,0 of 18
KFDLNSYGIS,VIYSDGRRTFYGDSVK,GSTAGTFDS,1.34 / 0.87 / 0.92 / 0.99 / 1.03 / 1.21,0 of 18
GFNLNSYGIS,VIYSDGRRTFYGDRVK,GQAAGTFDT,n.d. / 1.48 / n.d. / 0.58 / 0.76 / 0.96,1 of 18 (0.40)
GFTLDSYGIS,VIYADGRRTFYGDAVK,GRTAGTFDS,-0.18 / n.d. / -0.29 / -0.66 / 0.15 / 0.28,0 of 18
GFDLNSYGIS,VIYSDGRRTFYGDQVK,GQTAGTFDD,0.85 / 0.42 / 0.66 / 0.59 / 0.49 / 0.78,0 of 18
GFSLNEYGIS,VIYSDGRRTFYCDSVK,GQTAGTFDS,0.81 / 0.71 / -0.19 / 0.10 / -0.03 / 0.43,1 of 18 (2.09)
GFELNEYGIS,VIYSDGRRTFYSDSVK,GKQAGTFDS,0.89 / -0.02 / 0.62 / -0.08 / 0.07 / 0.71,0 of 18
GFKLNSYGIS,VIYSDGRRTFYTDSVK,GNEAGTFDS,0.18 / 0.00 / 0.12 / 0.09 / 0.21 / 0.11,2 of 18 (3.41)
GFELNSYGIS,VIYSDGRRTFYGDSVK,GHVAGTFDT,0.21 / 0.22 / 0.39 / 0.22 / 0.36 / 0.61,0 of 18
GFSLNSYGIS,VIYSDGRRTFYTDSVK,GRWAGTFDS,1.60 / 1.57 / 1.56 / 1.20 / 0.89 / 1.61,0 of 18
GFGLNSYGIS,VIYSDGRRTFYGDSVK,GNEAGTFDS,0.58 / -0.10 / -0.04 / 0.09 / -0.30 / 0.34,0 of 18
GFDLNSYGIS,VIYSDGRRTAYGDRVK,GRQAGTFDS,0.50 / -0.14 / -0.17 / -0.23 / -0.36 / 0.02,0 of 18
GFCLNEYGIS,VIYSDGRRTFYGDSVK,GRTAGTFDL,n.d. / 1.66 / 3.92 / 2.44 / 2.67 / 2.86,1 of 18 (2.19)
GFSLNSYGIS,VIYSDGRRTAYQDSVK,GNAAGTFDS,-0.56 / 0.65 / -0.45 / -0.93 / -0.22 / n.d.,0 of 18
GFTLESYGIS,VIYADGRRTFYGDSVK,GEAAGTFDA,0.04 / -0.01 / -0.18 / 0.10 / 0.08 / 0.69,0 of 18
GFELNSYGIS,VIYSDGRRTFYSDSVK,GKEAGTFDT,0.23 / 0.78 / -0.35 / -0.11 / -0.47 / 0.79,0 of 18
GFQLNSYGIS,VIYSDGRRTFYDDSVK,GRTAGTFDS,1.19 / 0.09 / 0.49 / 0.56 / 0.96 / 0.84,1 of 18 (2.04)
GFSLNSYGIS,VIYSDGRRTFYDDSVK,GKAAGTFDV,0.41 / -0.22 / 0.32 / 0.23 / 0.03 / 0.25,0 of 18
GFSLNSYGIS,VIYSDGRRTFYADNVK,GEAAGTFDT,0.60 / -0.10 / 1.21 / 0.14 / 0.40 / 0.30,0 of 18
KFTLNSYGIS,VIYSDGRRTFYSDSVK,GKEAGTFDS,0.85 / 0.26 / 1.13 / 0.54 / 0.35 / 0.37,0 of 18
GFSLNSYGIS,VIYSDGRRTFYGDSVK,GKVAGTFDQ,-0.65 / -0.22 / -1.10 / -0.22 / 0.43 / -0.51,0 of 18
GFTLESYGIS,VIYSDGRRTFYADSVK,GHAAGTFDT,-0.40 / 0.55 / 0.33 / -0.04 / -0.34 / 0.06,0 of 18
GFVLNSYGIS,VIYSDGRRTFYIDSVK,GREAGTFDS,n.d. / n.d. / n.d. / n.d. / n.d. / n.d.,0 of 18
GFVLNEYGIS,VIYSDGRRTFYADSVK,GRAAGTFDK,1.09 / 0.83 / 0.47 / 0.57 / 0.64 / 0.47,0 of 18
GFGLNEYGIS,VIYSDGRRTFYGDPVK,GRTAGTFDS,0.82 / 0.60 / 0.52 / 0.40 / 0.65 / 0.86,0 of 18
GFTLNSYGIS,VIYSDGKRTFYADDVK,GRTAGTFDT,0.51 / 0.24 / 0.52 / 0.07 / 0.37 / 0.36,0 of 18
GFNLNSYGIS,VIYSDGRRTFYIDDVK,GNAAGTFDS,0.82 / 0.40 / 1.22 / -0.23 / 1.43 / 0.06,0 of 18
GFSLNSYGIS,VIYADGRRTFYGDDVK,GKAAGTFDS,0.00 / -0.67 / n.d. / n.d. / 0.38 / -1.10,0 of 18

The 6 strongest on average among those seen in every replicate, once more:

CDR-H1,CDR-H2,CDR-H3,log10 Kd (nM) by replicate,signal with controls
GFSLNSYGIS,VIYSDGRRTFYGDSVK,GKVAGTFDQ,-0.65 / -0.22 / -1.10 / -0.22 / 0.43 / -0.51,0 of 18
GFDLNSYGIS,VIYSDGRRTAYGDRVK,GRQAGTFDS,0.50 / -0.14 / -0.17 / -0.23 / -0.36 / 0.02,0 of 18
GFTLESYGIS,VIYSDGRRTFYADSVK,GHAAGTFDT,-0.40 / 0.55 / 0.33 / -0.04 / -0.34 / 0.06,0 of 18
GFDLNMYGIS,VIYSDGRRTFYDDSVK,GKAAGTFDS,0.28 / -0.03 / 0.04 / -0.03 / 0.00 / 0.20,0 of 18
GFGLNSYGIS,VIYSDGRRTFYGDSVK,GNEAGTFDS,0.58 / -0.10 / -0.04 / 0.09 / -0.30 / 0.34,0 of 18
GFKLNSYGIS,VIYSDGRRTFYTDSVK,GNEAGTFDS,0.18 / 0.00 / 0.12 / 0.09 / 0.21 / 0.11,2 of 18 (3.41)